Results from the NIST ThermoML archive (doi:10.1016/j.jct.2013.02.004).

Test: activity coefficient (dimensionless); of the first substance listed, at infinite dilution; xn = mol fraction of the nth substance listed
Settings: 101 kPa, Liquid, Chromatography, x1 = 0

CCCCOCCCC [dibutyl ether] + CCCCCC[n+]1ccc2ccccc2c1.N#C[S-]
Settings | activity coefficient
308.15 K | 27.8 ± 1.9
318.15 K | 25.9 ± 1.8
328.15 K | 24.4 ± 1.7
338.15 K | 23.1 ± 1.6
348.15 K | 21.8 ± 1.5
358.15 K | 20.8 ± 1.4
368.15 K | 19.6 ± 1.3

± gives the expanded uncertainty stated by the source.
